Drawing on ChEMBL document CHEMBL1133770, “Synthesis and antitumor activity of new benzoheterocyclic derivatives of distamycin A” (J Med Chem, 2000), this text covers IC50 and Resistance index for 3 compounds.

Molecules are shown by their SMILES. pIC50: −log10 of the molar value. Several values for one entry are separate records, joined by “and”; a condition that tells them apart may be missing. Equal entries are not always repeated.

Assay [1] concerns L1210. The assay can be described thus: Inhibition of growth in L1210 leukemia cells resistant to Tallimustine.
Assay [2] relates to L1210. Description: Inhibition of growth in L1210 leukemia cells resistant to doxorubicin(DX).
Assay [3] concerns L1210. Description: In vitro antitumor activity evaluated against L1210 murine leukemia cell line.
Assay [4] deals with L1210. The assay can be described thus: Ratio between IC50 value on resistant cells and sensitive cells. It is filed as functional, Mus musculus. Also noted: reference not given here. A digest of the protocol: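 Murine L1210 leukemia cells, parental and doxorubicin- or tallimustine-resistant sublines, were grown in stationary suspension in RPMI 1640 with 10% FCS, 2 mM glutamine, […] and antibiotics. Exponentially growing cells were exposed continuously for 48 h to graded concentrations from a 1 mg/mL DMSO stock, and survivors were counted electronically. IC50 came from dose-response curves, with duplicate cultures and at least two repeats. RI was the IC50 on resistant cells divided by the IC50 on sensitive cells.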

The pIC50 is the negative decadic logarithm of the IC50, by convention in mol/L. Regarding `Cn1cc(NC(=O)c2cc(NC(=O)c3cc(NC(=O)/C=C/c4ccc(N(CCCl)CCCl)cc4)cn3C)cn2C)cc1C(=O)NCCC(=N)N`, the negative logarithm of the IC50 (pIC50) in the assay with L1210 [1] was 9.96; with L1210 [2], 9.89; in the assay with L1210 [3], 8.02.

`Cl.Cn1cc(NC(=O)c2cc(NC(=O)c3cc(NC(=O)/C=C/c4ccc(N(CCCl)CCCl)cc4)cn3C)cn2C)cc1C(=O)NCCC(=N)N`: the Resistance index with L1210 [4] was 17.6 and 8.

For `Cl.Cn1cc(NC(=O)c2cc(NC(=O)c3cc(NC(=O)c4ccc(N(CCCl)CCCl)cc4)cn3C)cn2C)cc1C(=O)NCCC(=N)N` [TALLIMUSTINE CHLORIDE], the pIC50 in the assay on L1210 [1] is 8.92; in the assay with L1210 [2] it was 9.38.
